The numbers were not newly measured in article PMC7864917, which cites them from elsewhere.

A word on the Kd: it is a measure of binding affinity in units of concentration.

In this data set the target is RyR1 (UniProt P21817). The following applies: cited from earlier work.

Turning to Calmodulin (apo) (from UniProt P0DP23), the Kd was 0.03 µM.
